Test results published in patent US20250263426A1, “PDE4B INHIBITOR AND USE THEREOF” (Xizang Haisco Pharmaceutical Co., Ltd., priority 2022, published 2025).

Chains of the proteins cited; added tags and fusions are not shown. A line that says so, or that is headed by a name, gives the form on record, which may keep a tag or linker. Residues count along the entry.
UniProt Q07343, 212-736 with tags or gaps limits assumed: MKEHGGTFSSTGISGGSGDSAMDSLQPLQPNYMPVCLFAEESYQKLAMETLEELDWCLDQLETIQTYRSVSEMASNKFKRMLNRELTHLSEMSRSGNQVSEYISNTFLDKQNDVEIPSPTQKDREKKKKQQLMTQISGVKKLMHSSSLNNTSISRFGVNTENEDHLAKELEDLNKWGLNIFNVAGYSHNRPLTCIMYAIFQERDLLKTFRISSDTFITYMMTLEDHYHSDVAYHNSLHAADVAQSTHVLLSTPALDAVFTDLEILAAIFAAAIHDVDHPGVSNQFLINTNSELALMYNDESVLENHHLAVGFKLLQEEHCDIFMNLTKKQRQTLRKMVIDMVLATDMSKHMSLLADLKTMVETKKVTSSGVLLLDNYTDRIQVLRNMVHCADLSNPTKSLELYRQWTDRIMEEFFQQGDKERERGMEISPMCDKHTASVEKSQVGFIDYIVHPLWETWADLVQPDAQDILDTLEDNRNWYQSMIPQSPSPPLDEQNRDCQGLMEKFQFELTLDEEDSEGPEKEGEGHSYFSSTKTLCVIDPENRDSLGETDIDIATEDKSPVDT
UniProt Q08499, 303-809 limits assumed: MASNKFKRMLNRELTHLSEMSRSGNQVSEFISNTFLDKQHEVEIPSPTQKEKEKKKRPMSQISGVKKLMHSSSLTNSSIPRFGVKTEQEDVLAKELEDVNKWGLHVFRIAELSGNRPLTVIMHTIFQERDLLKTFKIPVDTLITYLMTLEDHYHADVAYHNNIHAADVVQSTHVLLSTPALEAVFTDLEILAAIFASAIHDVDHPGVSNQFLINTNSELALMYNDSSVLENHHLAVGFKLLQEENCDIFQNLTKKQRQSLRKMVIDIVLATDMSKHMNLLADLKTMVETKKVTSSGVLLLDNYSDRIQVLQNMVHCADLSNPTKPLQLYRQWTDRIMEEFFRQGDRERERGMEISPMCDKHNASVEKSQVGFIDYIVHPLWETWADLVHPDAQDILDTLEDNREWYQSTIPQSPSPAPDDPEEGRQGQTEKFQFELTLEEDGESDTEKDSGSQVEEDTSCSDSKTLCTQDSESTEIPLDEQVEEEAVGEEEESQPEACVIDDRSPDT

What was measured:
[1] = target: PDE4B2 (Homo sapiens (Human), UniProt Q07343); assay: Effect of compounds on PDE4B2 activity (fluorescence polarization kit); conditions: read-out: PDE4B2 IC50
[2] = target: PDE4D2 (Homo sapiens (Human), UniProt Q08499); assay: Effect of compounds on PDE4D2 activity (fluorescence polarization kit); assay type: biochemical; conditions: read-out: PDE4D2 IC50

| Compound | IC50 [1] [nM] | IC50 [2] [nM] |
| --- | --- | --- |
| CC(COC(N)=O)Nc1nc(N2CC=C(c3ncc(C4CC4)cn3)CC2)nc2c1[S@+]([O-])CC2 (single isomer, unassigned) | 10 to 50 | 10 to 50 |
| [O-][S+]1CCCc2nc(N3CC=C(c4ncc(C5CC5)cn4)CC3)nc(N3CCC(O)C34CCC4)c21 (single isomer, unassigned) | < 10 | < 10 |
| CCOc1cnc(C2=CCN(c3nc4c(c(N5CCC(O)C56CCC6)n3)[S+]([O-])CC4)CC2)nc1 (single isomer, unassigned) | < 10 | < 10 |
| [O-][S+]1CCc2nc(N3CC=C(c4ncc(C5CC5)cn4)CC3)nc(N3CCC(CO)C34CCC4)c21 (single isomer, unassigned) | < 10 | < 10 |
